Molecular target: T1, Methylated-DNA--protein-cysteine methyltransferase (Homo sapiens, UniProt P16455)
T1 sequence (P16455 whole entry): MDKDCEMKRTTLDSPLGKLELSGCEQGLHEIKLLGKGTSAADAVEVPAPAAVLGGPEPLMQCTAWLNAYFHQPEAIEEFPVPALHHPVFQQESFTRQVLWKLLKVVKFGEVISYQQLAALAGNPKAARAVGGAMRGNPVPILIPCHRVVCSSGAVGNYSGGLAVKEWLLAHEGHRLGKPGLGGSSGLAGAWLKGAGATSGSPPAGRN

`Nc1nc(OCc2ccccc2)c2[nH]cnc2n1` [6-O-BENZYLGUANINE] showed an IC50 of 39 nM.

From ChEMBL document CHEMBL2169860, “Design of a hypoxia-activated prodrug inhibitor of O6-alkylguanine-DNA alkyltransferase” (Bioorg Med Chem Lett, 2012)
